Laboratory results: patent US20090270438A1, “Novel compositions and formulations” (priority 2006, published 2009)

Test: Solubility in water or ethanol
Conditions: at concentrations of 4 and 8% w/v

buprenorphine hydrochloride
solubility in water or ethanol: not proved soluble
